The values that follow are results of earlier work, collected in article PMC2673089 (Journal of pharmaceutical sciences, 2008).

The data set has as its system MDCK-MDR1 monolayers. Conditions: MDCK-MDR1 monolayer characterization; cited from earlier work.

Regarding `CC(=O)O[C@H]1C(=O)[C@@]2(C)[C@H]([C@H](OC(=O)c3ccccc3)[C@]3(O)C[C@H](OC(=O)[C@H](O)[C@@H](NC(=O)c4ccccc4)c4ccccc4)C(C)=C1C3(C)C)[C@]1(OC(C)=O)CO[C@@H]1C[C@@H]2O` [paclitaxel], the “Efflux ratio of P-gp substrate marker” value was 101.
